The assay concerns the target human TRPV1 (Homo sapiens (Human), UniProt Q8NER1). The assay can be described thus: pH-based assay, Protocol 2 (hpH-CHO). Particulars: TRPV1/CHO cells, pH 5.0-5.1; mean ± SEM; read-out: TRPV1 IC50 Potency Human pH CHO (hpH-CHO). In kind it is cell-based. From the text:
For Protocol 2, a Chinese Hamster Ovary cell line (CHO) that has been engineered to constitutively express human recombinant TRPV1 was used (TRPV1/CHO cells). The TRPV1/CHO cell line was generated as described below.
The resulting PCR products were purified from agarose gels using Gel Band Purification Kit (GE Healthcare Bioscience) and were subcloned into pCR-Blunt vector (Invitrogen). The cloned cDNA was fully sequenced using a fluorescent dye-terminator reagent (BigDye Terminator ver3.1 Cycle Sequencing Kit, Applied Biosystems) and ABI Prism 3100 genetic analyzer (Applied Biosystems). The pCR-Blunt vector containing the hTRPV1 cDNA was subjected to restriction digestion with EcoR1. […] The sequence of the cDNA encoding TRPV1 is available at GenBank accession number AJ277028.
CHO-K1 cells were maintained in growth medium consisting of α-MEM, 10% FBS (Hyclone), and 100 IU/mL of penicillin-100 μg/mL of streptomycin mixed solution (Nacalai Tesque, Japan) at 37° C. in an environment of humidified 95% air and 5% CO2. […] 24 hr after transfection, neomycin-resistant cells were selected using 1 mg/mL G418 (Nacalai Tesque). […]
(5) The Fura-2 fluorescent intensity was monitored at a wavelength of 340 nm and at 380 nm, respectively, at a rate of 0.5 Hz for a total of 240 seconds.

Protein sequences, listed by entry. Tags and fused reporters are not part of them.
UniProt Q8NER1, whole entry: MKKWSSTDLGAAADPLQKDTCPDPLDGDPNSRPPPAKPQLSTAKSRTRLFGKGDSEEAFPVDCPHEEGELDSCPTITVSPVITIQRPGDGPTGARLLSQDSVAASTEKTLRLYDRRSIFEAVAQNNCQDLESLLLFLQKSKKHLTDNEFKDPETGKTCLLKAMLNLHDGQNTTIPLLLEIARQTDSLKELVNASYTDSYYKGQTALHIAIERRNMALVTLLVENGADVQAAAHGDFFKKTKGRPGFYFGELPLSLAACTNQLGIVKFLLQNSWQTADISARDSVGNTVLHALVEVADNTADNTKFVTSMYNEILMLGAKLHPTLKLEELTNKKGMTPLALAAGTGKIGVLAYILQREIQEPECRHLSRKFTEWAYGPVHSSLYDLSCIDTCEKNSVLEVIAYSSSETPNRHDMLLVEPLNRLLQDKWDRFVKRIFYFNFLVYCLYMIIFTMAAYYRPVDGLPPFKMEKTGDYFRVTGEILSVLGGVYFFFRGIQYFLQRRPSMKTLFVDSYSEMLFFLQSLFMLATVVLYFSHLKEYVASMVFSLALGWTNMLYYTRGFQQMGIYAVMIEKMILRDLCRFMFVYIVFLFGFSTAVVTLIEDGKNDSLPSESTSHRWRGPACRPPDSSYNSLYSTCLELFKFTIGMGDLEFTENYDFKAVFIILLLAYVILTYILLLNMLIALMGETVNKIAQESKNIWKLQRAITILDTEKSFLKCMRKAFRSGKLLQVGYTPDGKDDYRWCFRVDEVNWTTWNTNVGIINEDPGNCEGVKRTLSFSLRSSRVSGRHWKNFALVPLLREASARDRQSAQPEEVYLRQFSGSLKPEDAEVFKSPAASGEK

For orientation: IC50 means the concentration needed to halve the response being measured. Consider `CCC(O)c1cnc(C2=CCN(C(=O)Nc3ccc(C(F)(F)F)cc3)CC2)c(Cl)c1` (stereo not shown) [Compound U2], for which the IC50 came to 54.3 ± 5.9 nM.

The record behind these values is patent publication US9365563B2, “TRPV1 antagonists including dihydroxy substituent and uses thereof” (Purdue Pharma L.P., priority 2007, dated 2016).
